Compound activity: PubChem BioAssay, Broad Institute
The list is not random: actives were taken first. Their share in the collection is about 2.2%.
FGF22 binding: shifts melting point of recombinant human FGF22; Q9HCT0; recombinant FGF22 thermal shift, SYPRO orange fluorescence; percent of sucrose octasulfate shift, DMSO zero; activity (Tm shift, normalised), % at 9.99 µM; hit rate 1.5% among 340,000; AID 651658;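 active = mean Tm shift, scaled 0 neutral to 100 positive control, at about 1.3% or above, every replicate too, limit read from the data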
Yeast UUG start: modulators of start codon recognition fidelity in yeast; AID 602363; activity score, % at 18.7 µM; S. cerevisiae UUG-firefly luciferase reporter, luminescence/redox ratio; 0.13% of 350,000 active;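 active = replicate mean at a twofold rise or more, about +100% in these data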;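 note: firefly luciferase made from a UUG start codon reports start codon fidelity; reporter light over untreated wells divided by growth signal over untreated wells; some hits fall short of that in this replicate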
SIRT5 inh: blocks human SIRT5 desuccinylation of peptide; Q9NXA8; Purified SirT5, succinyl-peptide AMC, trypsin-coupled fluorescence; inhibition, % at 15 µM; hit rate 1.1% among 330,000; AID 652115; in the data active = inhibition above about 15%
PDI inh: blocks human protein disulfide isomerase activity | P07237 | PDI insulin aggregation turbidity, A650, 90 min | inhibition, % at 10 µM | hit rate 0.052% among 350,000 | AID 588391;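 active = mean inhibition across replicates of 30% or more, whatever share of single replicates reach that level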
ERp5 inh: ERp5 (human) disulfide isomerase inhibition. ERp5 insulin aggregation, absorbance 650 nm, 90 min. inhibition, % at 9.99 µM. hit rate 0.05% among 350,000. Q15084;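 active = mean replicate inhibition above about 25%, with every replicate also reaching it, limit read from the data, passing the limit was not always enough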
S100A4 MyoIIA: inhibitors of human S100A4 binding to myosin IIA peptide; P26447; hit rate 0.14% among 360,000; inhibition, % at 10.7 µM; S100A4/TAMRA-MyoIIA peptide fluorescence polarization;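 active = mean inhibition of at least 70% across replicates, with every replicate also reaching that level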
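Material: S100A4 monomer protein | Medium: HEPES pH 7.2 with CaCl2, KCl, NaCl, DTT, Triton | Reagent: Labelled myosin peptide probe, 5 nM | Doses: One dose per compound | Times: 5 min incubation before reading | Benchmarks: Neutral control DMSO, positive control TFP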
* = called active by the depositor; x = not tested or not shown.

SMILES | FGF22 binding | Yeast UUG start | SIRT5 inh | PDI inh | ERp5 inh | S100A4 MyoIIA
Cc1ccccc1S(=O)(=O)N1CCCCN2[C@H](CO)[C@H](c3ccc(-c4ccccc4)cc3)[C@@H]2C1 | 0.3 | 3.2 | 14.3 | x | -6.5 | 4.8
Cc1ccccc1S(=O)(=O)N1CCCCN2[C@H](CO)[C@@H](c3ccc(-c4ccccc4)cc3)[C@@H]2C1 | -0.4 | -4.7 | 18.7* | x | -8.8 | -1.3
COCC(=O)N1[C@@H](CO)[C@H](c2ccccc2)C12CN(C(=O)NC1CCCC1)C2 | x | x | -1.3 | x | -1.2 | 12.8
CNC(=O)C[C@@H]1CC[C@@H]2[C@@H](COc3ccc(NC(=O)Nc4c(C)noc4C)cc3C(=O)N2C)O1 | -0.1 | -8.5 | x | x | x | x
Cc1ccc(S(=O)(=O)Nc2ccc3c(c2)C(=O)N([C@@H](C)CO)C[C@@H](C)[C@H](CN(C)C(=O)NC2CCCCC2)OCCCC[C@H](C)O3)cc1 | -0.4 | -3.8 | 3.3 | x | -7.7 | -4.0
C[C@H](CO)N1C[C@H](C)[C@@H](CN(C)C(=O)C2CC2)Oc2ncc(C#Cc3ccccc3F)cc2C1=O | -0.1 | 13.0 | 0.3 | x | -3.0 | 10.9
CCCNC(=O)C[C@H]1C[C@@H]2c3cc(N(C)C)ccc3O[C@@H]2[C@H](CO)O1 | -0.7 | -34.8 | -3.5 | x | 6.5 | 6.8
CC1=CC(C)(C)NC(=S)N1c1cccc2cc(S(=O)(=O)O)ccc12 | 0.0 | x | 19.7* | -2.4 | -2.6 | -1.3
Cc1sc2nc(CN3CCOCC3)[nH]c(=O)c2c1-c1ccccc1 | x | x | x | -1.3 | x | x
Cc1sc2nc(N3CCOCC3)[nH]c(=O)c2c1-c1ccccc1 | -0.2 | x | 31.3* | 1.1 | -1.3 | -5.2

Taken from above, three compounds:
SMILES | FGF22 binding | Yeast UUG start | SIRT5 inh | PDI inh | ERp5 inh | S100A4 MyoIIA
Cc1ccccc1S(=O)(=O)N1CCCCN2[C@H](CO)[C@H](c3ccc(-c4ccccc4)cc3)[C@@H]2C1 | 0.3 | 3.2 | 14.3 | x | -6.5 | 4.8
Cc1ccccc1S(=O)(=O)N1CCCCN2[C@H](CO)[C@@H](c3ccc(-c4ccccc4)cc3)[C@@H]2C1 | -0.4 | -4.7 | 18.7* | x | -8.8 | -1.3
COCC(=O)N1[C@@H](CO)[C@H](c2ccccc2)C12CN(C(=O)NC1CCCC1)C2 | x | x | -1.3 | x | -1.2 | 12.8

(further entries)
SMILES | FGF22 binding | Yeast UUG start | SIRT5 inh | PDI inh | ERp5 inh | S100A4 MyoIIA
CC=Cc1ccc2n(c1=O)C[C@@H]1[C@@H](CO)[C@H](C(=O)NCC(F)(F)F)[C@H]2N1C(=O)C1CCCC1 (mixture of isomers) | -0.1 | x | -5.9 | x | 7.1 | -18.0
Cc1ccc(S(=O)(=O)Nc2ccc3c(c2)C(=O)N([C@H](C)CO)C[C@@H](C)[C@H](CN(C)S(=O)(=O)c2ccc(Cl)cc2)O3)cc1 | x | x | 16.0* | x | -6.0 | 3.1
Cc1ccc(S(=O)(=O)Nc2ccc3c(c2)C(=O)N([C@@H](C)CO)C[C@@H](C)[C@@H](CN(C)S(=O)(=O)c2ccc(Cl)cc2)O3)cc1 | -0.9 | x | 19.8* | x | 1.2 | -0.3
Cc1ccc(S(=O)(=O)Nc2ccc3c(c2)C(=O)N([C@H](C)CO)C[C@H](C)[C@H](CN(C)S(=O)(=O)c2ccc(Cl)cc2)O3)cc1 | -0.5 | x | 8.3 | x | 20.8 | -36.8
O=C(c1ccccc1F)N1CC[C@@H]2[C@@H](CO)Nc3ccc(C#Cc4ccccc4)cc3[C@@H]21 | 0.3 | -6.3 | 10.8 | x | -3.7 | -7.9
O=C(NS(=O)(=O)c1ccccc1[N+](=O)[O-])c1ccccc1 | 0.0 | 3.4 | 2.3 | -2.4 | 1.4 | 2.5
O=[N+]([O-])c1ccccc1S(=O)(=O)N/C(=N/S(=O)(=O)c1ccccc1)c1ccccc1 | 43.3* | -13.6 | x | 1.0 | -1.4 | -0.8
O=C(Oc1ccccc1)N1CCCC1 | -0.2 | -12.8 | -1.5 | -4.2 | 2.4 | -9.0
O=C(Oc1ccc(Oc2ccccc2)cc1)N1CCC(O)CC1 | 0.1 | -12.8 | 34.1* | -9.8 | 1.6 | -1.3
COc1ccc(OCCCC(=O)Nc2nc(C)c(C(C)=O)s2)cc1 | 0.2 | x | -0.7 | -2.9 | -13.0 | -2.7
CC(=O)c1sc(NC(=O)CCCOc2ccc(Cl)cc2)nc1C | 43.2* | x | 3.6 | 0.3 | -2.5 | -2.8
O=C(NCC1CC1)[C@@H]1N[C@@H]2c3ccc(C4=CCCCC4)c(=O)n3C[C@@H]2[C@H]1CO | 0.1 | x | -3.8 | x | -2.6 | -3.2
C[C@H]1CN([C@@H](C)CO)C(=O)Cc2cc(NC(=O)CCN3CCOCC3)ccc2O[C@@H]1CN(C)CC1CCCCC1 | -0.1 | 2.8 | x | x | 4.7 | 2.2
C[C@H](CO)N1C[C@H](C)[C@@H](CN(C)CC2CCCCC2)Oc2ccc(NC(=O)Nc3ccc4c(c3)OCO4)cc2CC1=O | -0.4 | 7.8 | 15.9* | x | 4.0 | 0.8
C[C@@H]1CN([C@H](C)CO)C(=O)Cc2cc(NC(=O)CCN3CCOCC3)ccc2O[C@@H]1CN(C)CC1CC1 | x | 6.7 | -2.8 | x | 3.2 | 4.1
C[C@H]1CN([C@@H](C)CO)C(=O)Cc2cc(NC(=O)CCC(F)(F)F)ccc2O[C@@H]1CN(C)C | -0.3 | 5.2 | 4.2 | x | -4.9 | 107.5*
